We go through one substance from article PMC4303648.

For experiment [1], the target named is reconstituted thin filament (chicken skeletal actin decorated with human recombinant cardiac troponin and tropomyosin) (chicken | human) (UniProt P68139). Briefly: single-molecule fluorescence imaging (oblique angle fluorescence microscopy of tightropes); thin filament tightropes in sub-maximal activation conditions: pCa 6, 15 nM myosin, 0.1 μM ATP; kymographs.

For experiment [2] the target is unchanged. As to the kind of experiment: single-molecule fluorescence imaging (oblique angle fluorescence microscopy of tightropes); intensity histograms of myosin clusters on thin filament tightropes over a range of myosin, calcium and ATP concentrations, fitted globally to a three-state kinetic model; data set (i) 10 fps, data set (ii) 3.8 fps; all data fit at pCa 6.4.

Several values for one entry are separate records, joined by “and”; a condition that tells them apart may be missing. Equal values may be shown once.

Take myosin S1-eGFP-RLC (complex): the myosins per cluster (myosins per cluster) in experiment [1] was less than 12. Besides, in experiment [2], the K2 (myosin-induced equilibrium constant closed to open state transition) was 85 µM and 37 µM; the d (size of the regulatory unit, additional myosins bound) was 11.6 and 11; the ka (intrinsic myosin binding rate) was 38 s⁻¹ and 47 s⁻¹.
